Consider 3 molecules from PMC10997663, “Mechano-sensitivity of β2-adrenoceptors enhances constitutive activation of cAMP generation that is inhibited by inverse agonists” (Communications Biology, 2024).

Molecules are shown by their SMILES. Where a name gives a salt, the structure may show the parent alone. Read-outs that look alike come from different tables or passages of the source.

The test system of assay [1] is β2-adrenoceptor (β2AR). The assay can be described thus: cells. Details: species or system HEK293G overexpressing TS-SNAP-β2AR; GloSensor cAMP luminescence; inverse agonist inhibition of the peak basal (mechanically stimulated) response. Conditions: for activity at 10 µM: HEK293G, read-out: % of control remaining.
Assay [2] concerns β2-adrenoceptor (β2AR). Description: cells. Details: species or system HEK293G overexpressing TS-SNAP-β2AR; GloSensor cAMP luminescence; inverse agonist inhibition of the peak basal (mechanically stimulated) response. Conditions: for activity at 10 µM: HEK293G, read-out: % of control remaining. The source holds these as a separate data set.

In the case of `Cc1ccc(OCC(O)C(C)NC(C)C)c2c1CCC2` (racemic) [ICI-118551, (±)-1-[2,3-(dihydro-7-methyl-1H-inden-4-yl)oxy]-3-[(1-methylethyl)amino]-2-butanol hydrochloride], the “% of control remaining” value came to 25.14 ± 3.36% in assay [1] (added at time zero, 10 µM, inhibitor) and 25.09 ± 3.66% in assay [2] (30 min preincubation, 10 µM, inhibitor).
For `CC(C)NCC(O)COc1cccc2[nH]c3ccccc3c12` (stereo not drawn) [carazolol], the activity at 10 µM in assay [1] stood at 40.6 ± 2.84%; in assay [2], 42 ± 7.68%.
In the same order, the values of `CC(C)NCC(O)COc1cccc2ccccc12` (stereo not drawn) [propranolol] are 39 ± 5.81% and 58.5 ± 9.88%.
